Results published in patent US20130022620A1, “ASSAYS AND METHODS PERTAINING TO PRE-AMYLOID INTERMEDIATES” (priority 2011, published 2013).

Protein sequences, listed by entry. Tags and fused reporters are not part of them. Residues count along the entry.
UniProt Q63495, 23-402: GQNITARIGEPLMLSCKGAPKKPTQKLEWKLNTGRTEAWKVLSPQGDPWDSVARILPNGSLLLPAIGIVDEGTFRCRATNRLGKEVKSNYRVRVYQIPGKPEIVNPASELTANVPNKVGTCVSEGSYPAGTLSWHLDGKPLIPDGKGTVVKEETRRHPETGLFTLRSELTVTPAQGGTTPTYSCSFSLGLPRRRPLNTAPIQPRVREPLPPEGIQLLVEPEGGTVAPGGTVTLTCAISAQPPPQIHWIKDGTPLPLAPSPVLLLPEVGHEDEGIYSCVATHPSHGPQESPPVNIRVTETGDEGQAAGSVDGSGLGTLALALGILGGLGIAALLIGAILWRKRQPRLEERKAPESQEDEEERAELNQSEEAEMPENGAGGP

How the values were obtained:
h-IAPP = target: T1, h-IAPP (Homo sapiens, UniProt P10997); assay: Inhibition of h-IAPP amyloid formation (thioflavin-T, TEM, difference CD); format: biochemical; conditions: for kinetics of h-IAPP amyloid formation (thioflavin-T): 1:2 molar ratio
T1 sequence (P10997 34-70 limits assumed): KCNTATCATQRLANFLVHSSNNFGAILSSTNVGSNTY
Method: Thioflavin-T fluorescence was used to monitor the time course of h-IAPP amyloid formation in the presence and absence of sRAGE. To identify which form(s) of h-IAPP interact with RAGE, sRAGE was added to h-IAPP at various time points during the h-IAPP amyloid formation reaction. Aliquots of the reaction mixture were analyzed by adding 100 uL aliquots of the amyloid formation reaction to 96-well plates containing 8 uL of 60 uM thioflavin-T solution at various incubation times after initiation of the amyloid formation reaction. Fluorescence was measured using a Beckman Coulter DTX880 fluorescent plate reader (excitation: 445 nm and emission: 485 nm). Final solution conditions contained 16 mM tris HCl and 65 μM thioflavin-T (pH 7.4). The peptide concentrations for the kinetic assays were 20 μM h-IAPP or rat IAPP, and 20 μM sRAGE. All values represent means±SEM (n=3).
CD measurements of IAPP, sRAGE and IAPP/sRAGE reactions were taken at various incubation times. Far-UV CD experiments monitor the development of secondary structure of h-IAPP species and give insight into the conformational requirement for IAPP/RAGE-binding. All CD experiments were performed on an Applied Photophysics circular dichroism spectrophotometer by directly transferring 300 μL of peptide solution from kinetic assays into a 0.1 cm quartz cuvette a few minutes prior to data collection. The CD spectra for sRAGE and tris HCl buffer was subtracted from all RAGE/IAPP mixtures. The final far-UV CD data was collected over the range of 190 to 260 nm. Final solution conditions contained 16 mM tris HCl (pH 7.4). The peptide concentrations for the kinetic assays were 20 μM h-IAPP or rat IAPP, and 20 μM sRAGE.
Transient kinetic species of h-IAPP were characterized by TEM. TEM images confirm the presence or absence of amyloid which were indicated by thioflavin-T fluorescence. Aliquots (4 μl) were removed from the reaction mixtures monitored by thioflavin-T assays, placed on a carbon-coated 200-mesh copper grid and negatively stained with saturated uranyl acetate. The samples were imaged with a Philips CM12 transmission electron microscope at the New York University electron microscopy core facility. Final solution conditions contained 16 mM tris HCl (pH 7.4). The peptide concentrations for the kinetic assays were 20 μM h-IAPP and 20 μM sRAGE.

[1] = test system: mouse aortic smooth muscle cells; assay: AlamarBlue cell viability assay of aortic smooth muscle cells; format: cell-based; conditions: added before time point of toxic species formation
Method: Mouse vascular SMCs were cultured from the aortas of 10-week-old male mice using a modification of the procedure of Tarvo and Barret. See Tarvo et al. Blood Vessels. 1980; 17:110-116. SMCs were cultured following an explant protocol in accordance with institutional guidelines. Cultures were composed of 95% SM-α-actin positivity based on immunostaining. Cyto-toxicity was measured by AlamarBlue assay. INS-1 β-cells were seeded at a density of 30,000 cells per well in 96-well plates and cultured for 24 hours prior to stimulation with IAPP. Human and rat IAPP were dissolved and incubated in 16 mM tris HCl (pH 7.4, 25° C.) prior to cell stimulation. AlamarBlue was diluted ten-fold in culture media and cells were incubated for 5 hours at 37° C. Fluorescence (excitation 530; emission 590 nm) was measured on a Beckman Coulter DTX880 fluorescent plate reader. Values calculated were relative to those of control cells treated with buffer only. All values represent means±SEM (n=3).

RAGE = target: T2, RAGE (Rattus norvegicus, UniProt Q63495); assay: RAGE-block assay in beta cells; format: cell-based; conditions: 1:1 mixture of sRAGE/hIAPP, cells pre-treated with anti-RAGE IgG
T2 construct: Transformed rat insulinoma-1 (INS-1) β-cells (which express RAGE); endogenous in cells; host or cells: rat INS-1 insulinoma beta cells
Method: Beta cells were plated at a density of 30,000 cells per well in 96-well plate the night before the experiment. Cells were pre-treated with either anti-RAGE blocking IgG or control IgG for 2.5 hrs prior to 5 hrs stimulation with 14 uM h-IAPP toxic species or 1:1 mixture of sRAGE/hIAPP (28 micromolar total protein). hIAPP toxic species were produced by incubating a solution of 20 uM IAPP at room temp for 10 hrs. Prevention of formation of hIAPP toxic species was accomplished by reconstituting 20 micromolar dry hIAPP with a solution of 20 micromolar sRAGE.

mouse pancreatic islets = assay: AlamarBlue cell viability assay of pancreatic islets; format: cell-based; conditions: sRAGE added to h-IAPP at 1:1 molar ratio
[2] = test system: MCP-1 and IL-1β mRNA expression; assay: qRT-PCR of MCP-1 and IL-1β mRNA in β-cells; format: cell-based, rat
Method: Assays for qRT-PCR were carried out in 6-well plates. Total cellular RNA was isolated from h-IAPP stimulated β-cells using Qiagen RNA isolation kit, and the quality of RNA samples was determined by measurement of 260:280 ratio. Only samples with a 260:280 ratio of 2.0 or higher were used for reverse transcription. RNA samples were also treated by RNAse-free DNAse to avoid genomic DNA contamination. One microgram of RNA from each sample was reverse-transcribed to cDNA using MCP-1 and IL-1β primers. Non-template negative controls were also performed to monitor non-specific reactions. RNA isolated from rat IAPP and non-h-IAPP treated beta cells were used as negative controls. Equal amounts of RNA were used in each qRT-PCR reaction, and 18S was used as the internal control for amplification at the same time. qRT-PCR reactions were carried out using an Applied Biosystems 7500 RealTime PCR machine. The relative mRNA contents were normalized using 18S and quantification was carried out using qRT-PCR Quantifier Software.

rat INS-1 β-cells = assay: AlamarBlue cell viability assay of β-cells; format: cell-based
Method: Transformed rat insulinoma-1 (INS-1) β-cells (which express RAGE) are a pancreatic beta cell line commonly used for studies of h-IAPP induced toxicity. INS-1 cells were grown in RPMI 1640 supplemented with 10% fetal bovine serum (FBS), 11 mM glucose, 10 mM Hepes, 2 mM L-glutamine, 1 mM sodium pyruvate, 50 μM β-mercaptoethanol, 100 U/ml penicillin, and […] streptomycin. Cells were maintained at 37° C./5% CO2.
Cyto-toxicity was measured by AlamarBlue assay. INS-1 β-cells were seeded at a density of 30,000 cells per well in 96-well plates and cultured for 24 hours prior to stimulation with IAPP. Human and rat IAPP were dissolved and incubated in 16 mM tris HCl (pH 7.4, 25° C.) prior to cell stimulation. AlamarBlue was diluted ten-fold in culture media and cells were incubated for 5 hours at 37° C. Fluorescence (excitation 530; emission 590 nm) was measured on a Beckman Coulter DTX880 fluorescent plate reader. Values calculated were relative to those of control cells treated with buffer only. All values represent means±SEM (n=3).
Changes in cell morphology were examined by light microscopy to provide a second method of evaluating cell viability. Transformed rat INS-1 beta cells were photographed immediately prior to assessment of toxicity by Alamar blue cell viability assays. Images were taken using an Olympus BX-61 light microscope.

**Q.** Which results are given for “sRAGE: soluble extracellular domain of RAGE, SEQ ID NO: 18, made in a baculovirus expression system using Sf9 cells”?
**A.** h-IAPP amyloid formation (TEM) (h-IAPP; 1:1, added before or at very early time points of toxic species formation, after two weeks of additional incubation): complete inhibition of h-IAPP amyloid formation; β-sheet formation by h-IAPP (difference CD) (h-IAPP; 1:1, added before time points of toxic species formation): inhibition of β-sheet formation by h-IAPP; effect on h-IAPP secondary structure when added to amyloid fibrils (h-IAPP; 1:1, added to amyloid fibrils): no effect is observed; h-IAPP amyloid formation (thioflavin-T, TEM) (h-IAPP; 1:1 molar ratio, added before the midpoint of the reaction): inhibits amyloid formation; kinetics of h-IAPP amyloid formation (thioflavin-T) (h-IAPP; added after the mid-lag phase): does not prevent amyloid formation; kinetics of h-IAPP amyloid formation (thioflavin-T) (h-IAPP; added before the midpoint of the lag phase): inhibits h-IAPP amyloid formation; h-IAPP amyloid formation (h-IAPP; added after time points of toxic species formation): no effect on h-IAPP amyloid formation is seen; h-IAPP beta sheet structure and amyloid formation (h-IAPP; added at later time points of toxicity): significant reductions in h-IAPP beta sheet structure and amyloid formation; inhibition of h-IAPP toxicity to smooth muscle cells [1]: blocks smooth muscle cell toxicity; protective effects of sRAGE in the presence of anti-RAGE IgG (RAGE): are not affected; viability restored, relative to buffer control (mouse pancreatic islets): 80%; viability restored, relative to sRAGE by itself (mouse pancreatic islets): 100%; effect on MCP-1 and IL-1β mRNA up-regulation induced by h-IAPP intermediates ([2]; 1:1 molar ratio with h-IAPP, 5 hrs incubation): prevents upregulation of MCP-1 and IL-1β mRNA expression; MCP-1 and IL-1β mRNA up-regulation by itself ([2]; sRAGE alone, 20 uM): does not induce up-regulation of these pro-inflammatory biomarkers; inhibition of h-IAPP toxicity to β-cells (rat INS-1 β-cells; added to h-IAPP at 1:1 molar ratio before toxic species formation, 5 hrs incubation): protects transformed rat INS-1 β-cells from toxicity; toxicity by itself (rat INS-1 β-cells; sRAGE alone, 20 uM): is not toxic by itself
